Laboratory results from US10022359B2, “1,9-diazaspiro undecane compounds having multimodal activity against pain” (dated 2018).

tested on: human σ1 receptor and human μ-opioid receptor; assay: Human σ1 receptor and human μ-opioid receptor radioligand assays (dual binding); parameters: μ and σ1 dual binding: key to the marks not given beside the values; conditions: combined class for Ki-μ ([3H]-DAMGO, transfected CHO-K1 membranes) and Ki-σ1 ([3H](+)-pentazocine, transfected HEK-293 membranes)

| Compound | μ and σ1 dual binding |
| --- | --- |
| Cl.c1ccc(CN2CCC3(CCCCN3c3ccccc3)CC2)cc1 | ++ |

same assay, conditions: read-out: μ and σ1 dual binding; combined class for Ki-μ ([3H]-DAMGO, transfected CHO-K1 membranes) and Ki-σ1 ([3H](+)-pentazocine, transfected HEK-293 membranes)

| Compound | Ki [nM] |
| --- | --- |
| COc1cccc(N2CCCCC23CCN(Cc2ccccc2)CC3)c1 | < 500 |
| c1ccc(CCN2CCC3(CCCCN3c3ccccc3)CC2)cc1 | < 500 |
| Oc1cccc(N2CCCCC23CCN(Cc2ccccc2)CC3)c1 | < 500 |
| CC(=O)Nc1cccc(CCN2CCC3(CC2)COCCN3c2ccccc2)c1 | < 500 |
| c1ccc(CCN2CCC3(CC2)COCCN3c2ccccc2)cc1 | < 500 |
